Test results taken from PubChem BioAssay AID1875 (Broad Institute, 2009).
The list shows a part of the results, in another mix than the full data. Calls of active or inactive are those of the source.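 Rule for the calls: active = lowest replicate activity score at least 50, where 100 means six control SD above control mean; inconclusive = lowest score under 50 but half or more replicates reach 50; inactive = the rest.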

Test: perturbers of mRNA poly(A) processing – luminescence, S. cerevisiae, primary screen (AID 1875);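 note: yeast exposed to compound for 9 h at 30 °C; higher score means more reporter readthrough which indicates perturbed polyadenylation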
Details: S. cerevisiae SKY197-pL101 polyadenylation reporter, beta-gal luminescence; at 12 µM; stronger effect = higher value; efflux-impaired pdr1/pdr3 knockout yeast; score 100 = 6 SD above DMSO
For `COc1ccc(C(=O)NCC2(N3CCOCC3)CCCCC2)cc1OC`, the activity score was inactive: -19.6%. In the case of `O=C(OC1CN2CCC1CC2)C1c2ccccc2C=Cc2ccccc21` (stereo unspecified), the activity score was inactive: 2.33%. For `CCc1cc(C(=O)NCC2(N3CCCCC3)CCCCC2)sc1C`, the activity score was inactive: 7.81%. In the case of `N/C(=N\O)c1c(N)no[n+]1[O-]`, the activity score was inactive: 8.77%. In the case of `CCOC(=O)N1CCC(Nc2ccc(C)cc2)CC1`, the activity score was inactive: 3.36%. In the case of `CC(C)(C)OC(=O)N1CCC(N(C(=O)c2ccccc2)c2ccc(Cl)cc2)CC1`, the activity score was inactive: 26.1%. With `N#Cc1ccc(C(=O)NCC2(N3CCCCC3)CCCCC2)cc1` the activity score was inactive: 10.6%. With `c1ccc(CN2CCC(Nc3ccccc3)CC2)cc1` the activity score was inactive: 13.8%. In the case of `CCCN1CCC(Nc2cc(OC)cc(OC)c2)CC1`, the activity score was inactive: 7.13%. In the case of `CN(C)C1(CNC(=O)c2cccc(C#N)c2)CCCCC1`, the activity score was inactive: -0.442%. In the case of `Cc1ccc(C(=O)NCC2(N3CCCCC3)CCCCC2)o1`, the activity score was inactive: -0.26%. In the case of `Fc1ccccc1NC1CCN(Cc2ccccc2)CC1`, the activity score was inactive: 10.4%. For `COc1cc(OC)cc(C(=O)NCC2(N3CCCCC3)CCCCC2)c1`, the activity score was inactive: -3.65%. In the case of `CN(C)c1ccc(C(=O)NCC2(N3CCCCC3)CCCCC2)cc1`, the activity score was inactive: 3.94%. In the case of `CCN1CCC(Nc2cccc(F)c2)CC1`, the activity score was inactive: 1.04%. In the case of `CCCOc1ccc(C(=O)NCC2(N(C)C)CCCCC2)cc1`, the activity score was inactive: 9.52%. For `CC(C)(C)OC(=O)N1CCC(Nc2ccccc2)CC1`, the activity score was inactive: -16.7%. In the case of `CCOc1ncccc1C(=O)NCC1(N2CCOCC2)CCCCC1`, the activity score was inactive: -5.94%. In the case of `CN1CCC(Nc2ccc(F)c(Cl)c2)CC1`, the activity score was inactive: 23.1%. In the case of `CCCOc1ccc(C)cc1CN(CCCl)CCCl`, the activity score was inactive: 8.06%. For `CN1CCC(Nc2ccc(Cl)cc2)CC1`, the activity score was inactive: 22.1%. In the case of `CCC(CO)(C(=O)OC1CN2CCC1CC2)c1ccccc1` (stereo unspecified), the activity score was inactive: -4.51%. In the case of `COc1cc(OC)cc(C(=O)NCC2(N3CCOCC3)CCCCC2)c1`, the activity score was inactive: 9.16%. With `COc1cccc(C(=O)N(c2cc(C)cc(C)c2)C2CCN(C(=O)OC(C)(C)C)CC2)c1` the activity score was inactive: -14.8%. With `CSc1ccccc1C(=O)NCC1(N2CCCCC2)CCCCC1` the activity score was inactive: 5.24%. For `O=C(NCC1(N2CCCCC2)CCCCC1)c1ccc(=O)[nH]c1`, the activity score was inactive: -4.7%. In the case of `COc1ccc(C(=O)NCC2(N3CCCCC3)CCCCC2)cc1`, the activity score was inactive: 3.22%. In the case of `CC(C)(C)OC(=O)N1CCC(N(C(=O)c2ccccc2)c2ccc(F)cc2)CC1`, the activity score was inactive: -17.2%. In the case of `CCOC(=O)N1CCC(Nc2ccc(OC)cc2)CC1`, the activity score was inactive: 0.0508%. For `O=C(OC1CN2CCC1CC2)C1c2ccccc2Oc2ccccc21` (stereo unspecified), the activity score was inactive: -18.3%. In the case of `N#CC1(Nc2ccccc2)CCN(Cc2ccccc2)CC1`, the activity score was inactive: 9.1%. With `O=C(NCC1(N2CCOCC2)CCCCC1)c1cc2ccccc2o1` the activity score was inactive: 2%. With `O=C(NCC1(N2CCCCC2)CCCCC1)c1ccc(Cl)nc1` the activity score was inactive: -5.23%. In the case of `Cc1cc(C)cc(N(C(=O)c2ccccc2)C2CCN(C(=O)OC(C)(C)C)CC2)c1`, the activity score was inactive: 17.2%. For `O=C(NCC1(N2CCCCC2)CCCCC1)c1ccc(F)cc1`, the activity score was inactive: 2.62%. For `COc1ccc(NC2CCN(CCc3ccccc3)CC2)c(OC)c1`, the activity score was inactive: -7.44%. For `CCOC(=O)N1CCC(Nc2ccc(F)cc2)CC1`, the activity score was inactive: 10.1%. In the case of `CCOc1ccc(C)cc1CN(CCCl)CCCl`, the activity score was inactive: 7.1%. In the case of `COc1cc(C(=O)NCC2(N(C)C)CCCCC2)ccc1OC(F)F`, the activity score was inactive: 10.7%. In the case of `CCOC(=O)N1CCC(Nc2cccc(C)c2)CC1`, the activity score was inactive: -11.6%. For `Cc1ccc(OCC(C)C)c(CN(CCCl)CCCl)c1`, the activity score was inactive: 12.2%. In the case of `O=C(NCC1(N2CCCCC2)CCCCC1)c1cccc([N+](=O)[O-])c1`, the activity score was inactive: 22%. In the case of `CCN1CCC(Nc2ccc(Cl)cc2)CC1`, the activity score was inactive: -7.85%. In the case of `N#CC1(Nc2ccccc2)CCN(CCc2ccccc2)CC1`, the activity score was inactive: -2.98%. With `O=C(NCC1(N2CCCCC2)CCCCC1)c1ccc(OC(F)F)cc1` the activity score was inactive: 5.58%. For `CN1CCN(CCOC(=O)C(O)(c2ccccc2)c2ccccc2)CC1`, the activity score was inactive: 2.24%. For `COc1ccc(NC2CCN(C(=O)OC(C)(C)C)CC2)cc1`, the activity score was inactive: -9.3%. In the case of `COc1cc(C(=O)NCC2(N3CCCCC3)CCCCC2)ccc1OC(F)F`, the activity score was inactive: 23.1%. In the case of `O=C(NCC1(N2CCOCC2)CCCCC1)c1cc(=O)[nH]c2ccccc12`, the activity score was inactive: -0.578%. With `O=C(NCC1(N2CCCCC2)CCCCC1)c1cccc(C(F)(F)F)c1` the activity score was inactive: 3.4%. With `COc1cc(OC)c(C(=O)NCC2(N(C)C)CCCCC2)cc1OC` the activity score was inactive: 1.28%. With `COc1ccc(CN(CCCl)CCCl)cc1Cl` the activity score was inactive: -12.2%. With `CN(C)c1cccc(C(=O)NCC2(N3CCCCC3)CCCCC2)c1` the activity score was inactive: 3.73%. In the case of `CC(C)c1ccc(NC2CCN(C(=O)OC(C)(C)C)CC2)cc1`, the activity score was inactive: 9.21%. With `CCCOc1ccc(C(=O)NCC2(N(C)C)CCCCC2)cc1OC` the activity score was inactive: -5.97%. For `CN1CCC(Nc2cccc(F)c2)CC1`, the activity score was inactive: -2.06%.
